US20230181673A1, “TRI-PEPTIDES AND TREATMENT OF METABOLIC, CARDIOVASCULAR AND INFLAMMATORY DISORDERS” (Diapin Therapeutics, LLC, priority 2018, published 2023)

Test system: plasma liver enzymes, lipids and cytokines
Details: endpoint; for Plasma TG / NASH-diet-induced increase in plasma AST, ALT and ALP: glycine 0.33, DT-109 0.125 or 0.5 mg/g/day; for NASH-diet-induced increase in plasma AST, ALT and ALP: 12 weeks

| Compound | Plasma MCP-1/CCL2 and resistin (NASH-diet) | Plasma TC (NASH-diet, 0.5 mg/g/day DT-109) | Plasma TG (NASH-diet) | NASH-diet-induced increase in plasma AST, ALT and ALP |
| --- | --- | --- | --- | --- |
| Gly-Gly-Leu [DT-109] | lower | decreased | decreased | attenuated |
| NCC(=O)O [glycine, reference compound] | lower |  | decreased | attenuated |
